Source: patent EP3727043B1 (Golden Gait Biotech, S.L., priority 2017, dated 2019)
Where “and” joins values, the source holds several entries; their conditions need not be identical. Identical values can stand only once. Like-named read-outs stand apart in the source and are kept apart here.

What was measured:
[1] = tested on: 1-methyl-4-phenyl-1,2,3,6-tetrahydropyridine (MPTP) monkeys; test: LIDs in parkinsonian nonhuman primates; settings: for Dose to reduce LIDs / persistence of the LID reduction, tolerance: monkeys; for reduction of LIDs in parkinsonian monkeys / Side effects in monkeys: monkey, in vivo
[2] = tested on: 1-methyl-4-phenyl-1,2,3,6-tetrahydropyridine (MPTP) monkeys; settings: monkey, in vivo
[3] = at the dose printed in column Dose to reduce LIDs (mg/kg)
[4] = parkinsonian monkeys, maximal decrease as worded in the text

Row | Structure (SMILES) | Decline in LIDs in monkeys [1, 3] | Dose to reduce LIDs [1] | persistence of the LID reduction, tolerance [1] | Decline in LIDs in monkeys [1, 4] | Side effects in monkeys [2] | side effects, emesis or nausea in monkeys [2] | reduction of LIDs in parkinsonian monkeys [1] | Decline in LIDs in monkeys ([1]; dose 8.0 mg/kg) [%] | Side effects in monkeys [1]
1 | Cc1ncccc1OC[C@@H]1CCCN1 [ABT-089] | 30-50% | 0.10 mg/kg | persisted for months | 40% | None | no detectable side effects and no emesis | – | – | –
2 | c1cc2cc(-c3ccc(O[C@H]4CN5CCC4CC5)nn3)ccc2[nH]1 [ABT-107] | 60% | 0.10 mg/kg | – | – | None | – | reduced LIDs in parkinsonian monkeys with varying efficacy | – | –
3 | Clc1cc(N2C[C@@H]3CN[C@@H]3C2)cnc1Cl [ABT-894] | 60% | 0.01 mg/kg | persisted for months | up to 60% | None | no detectable side effects and no emesis | – | – | –
4 | Cc1ccc(-c2ccc(OC3CN4CCC3CC4)cn2)cc1 (centres unmarked) [AQW051] | – | 15.0 mg/kg and 8.0 mg/kg | – | – | None | – | reduced LIDs in parkinsonian monkeys with varying efficacy | 0 | –
5 | O=C(c1ccc(Cl)o1)N1CC2CNCC2C1 (centres unmarked) [AZD 1446] | 30% | 1.0 mg/kg | – | 30% | – | – | – | – | None
6 | c1cnc2cc3c(cc2n1)[C@@H]1CNC[C@H]3C1 [Varenicline] | 50% | 0.03 mg/kg | no tolerance | ~ 50% | – | – | – | – | Some nausea
